Assay results taken from PMC5395944.

Target: PglK wild type (lipid-linked oligosaccharide flippase, ABC transporter) from Campylobacter jejuni (C. jejuni) (UniProt Q0P9C4)
Assay: cross-linking; 0.1% glutaraldehyde for 30 min, then high-mass MALDI mass spectrometry; PglK 18 μM and Nb 18 μM (1:2 PglK-homodimer:Nb), 10 mM HEPES pH 7.5, 100 mM NaCl, 0.016% LMNG; without nucleotides or with 5 mM MgCl2 and 5 mM ADP or ATP

“PglK wild type (lipid-linked oligosaccharide flippase, ABC transporter) from Campylobacter jejuni (from UniProt Q0P9C4 3-564) (natural protein)” showed a stoichiometry N of 2.
